# Yeast mating assay 1: variants of the scFv Ab-14

The measurements come from Engelhart et al. 2022 (doi:10.1038/s41597-022-01779-4) through the FLAb antibody collection.

The target is the same throughout: PDVDLGDISGINAS, from the HR2 region of SARS-CoV-2 spike.

Ab-14 is the parent antibody, in scFv form: VH, then the linker GGGGSGGGGSGGGGS, then VL. The heavy chain is unchanged in all variants.
VH: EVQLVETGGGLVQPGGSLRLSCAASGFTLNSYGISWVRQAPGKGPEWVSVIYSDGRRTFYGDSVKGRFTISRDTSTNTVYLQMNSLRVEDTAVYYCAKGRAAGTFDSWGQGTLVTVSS
VL: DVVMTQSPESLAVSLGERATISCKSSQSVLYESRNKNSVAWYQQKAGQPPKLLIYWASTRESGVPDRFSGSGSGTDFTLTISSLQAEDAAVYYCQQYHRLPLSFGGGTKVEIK

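Phage display of a naive human antibody library on the peptide gave the parent. Library AAYL50 holds single substitutions and randomly drawn double and triple substitutions in the CDRs. AlphaSeq pools MATa yeast showing the antibodies with MATalpha yeast showing the peptide. After mating in shaken culture at 30 °C for 16 h, diploids were selected and their barcode pairs sequenced. Each replicate has its own calibration line, from reference interactions of the BCL2 family. The assay was run in three technical replicates.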

Changes read parent residue, position, new residue, counted from the first residue of the VL shown. Values are log10 of the apparent Kd in nM; lower means stronger binding. A mean of the replicates is given; it leaves out those without a signal. An entry "ND" has no value in the source: the pair was not observed among the diploids in that replicate. This suggests poor binding but is not conclusive. In this assay the parent's reference entry averaged 0.65; its copy inside this library read 1.68. Empty control strains, which show no peptide, gave a signal in 18% of pairings with library AAYL50; the median was 4.19 and 95% of these signals were weaker than 2.99. No background was subtracted. The control count says in how many pairings with the empty strains this scFv gave a signal, with their mean in brackets.

changes | replicates, log10 nM | log10 Kd (nM), mean | empty controls
S25K S33K R34I | 0.71 / 0.74 / 0.58 | 0.67 | 1 of 9 (3.79)
K36I S62G Q96H | 2.07 / 2.14 / 2.02 | 2.08 | 1 of 9 (6.01)
S33Y N37R V39P | ND / ND / ND | ND | 1 of 9 (3.52)
V29L E32S R99S | 0.50 / 0.67 / 0.65 | 0.60 | 1 of 9 (3.61)
R60W R99A | 3.49 / 3.90 / ND | 3.70 | 2 of 9 (4.18)
V39N A40M S62C | ND / ND / ND | ND | 2 of 9 (3.44)
S38N T59D Y97G | 2.49 / 2.51 / 2.21 | 2.41 | 3 of 9 (4.53)
Q27L P101M | 1.59 / 2.06 / 2.18 | 1.95 | 2 of 9 (3.58)
S25F Y31H W56T | -0.64 / -0.17 / -0.42 | -0.41 | 1 of 9 (4.73)
K24R R34Y R60K | 0.94 / 1.51 / 1.11 | 1.19 | 4 of 9 (3.92)
K24E N35Y V39Q | 4.19 / ND / 4.43 | 4.31 | 3 of 9 (4.39)
Q27I S33M T59H | 1.68 / 1.79 / 2.05 | 1.84 | 2 of 9 (3.90)
R60Q E61M H98D | ND / 4.18 / 3.42 | 3.80 | 3 of 9 (4.38)
S26R T59L E61D | 3.09 / ND / ND | 3.09 | 1 of 9 (3.97)
A40V T59F | ND / ND / ND | ND | 0 of 9
K24Q E32R V39F | ND / ND / ND | ND | 0 of 9
L30K S33K S62F | 2.39 / ND / 3.72 | 3.05 | 0 of 9
S26C L30M Y31P | 2.21 / 2.12 / 2.28 | 2.20 | 4 of 9 (4.77)
N37V A57F | ND / ND / ND | ND | 0 of 9
L30S K36P A40S | 3.72 / 3.53 / 3.90 | 3.72 | 1 of 9 (2.71)
S58C Q95P S103W | ND / ND / ND | ND | 0 of 9
E32I H98W | 2.94 / 2.52 / 2.75 | 2.74 | 2 of 9 (3.95)
R34S Y97G L102F | 0.05 / 0.39 / 0.24 | 0.22 | 1 of 9 (3.67)
V39Q A57L S58G | ND / ND / ND | ND | 0 of 9
W56S Q95Y L102M | 1.14 / 1.28 / 1.24 | 1.22 | 9 of 9 (4.63)
S26D L30E Q96K | 1.64 / 1.49 / 1.54 | 1.55 | 3 of 9 (3.93)
K24S S38P L100P | 2.17 / 2.78 / 2.42 | 2.46 | 2 of 9 (3.74)
L30S N37M L100I | 3.72 / 3.21 / 3.55 | 3.49 | 2 of 9 (4.54)
Q27K E61R L100E | ND / ND / ND | ND | 0 of 9
S38R S58F Y97C | ND / ND / 4.10 | 4.10 | 4 of 9 (3.95)
Y97D H98N | ND / ND / ND | ND | 0 of 9
V29P L30I P101V | 0.26 / 0.39 / 0.33 | 0.32 | 0 of 9
E32Y Y97G R99N | ND / ND / ND | ND | 0 of 9
Y97N H98N R99E | ND / ND / ND | ND | 0 of 9
Q27G N35T R60N | ND / 4.10 / 4.75 | 4.42 | 8 of 9 (4.67)
S26I E61I L102N | 2.61 / ND / ND | 2.61 | 1 of 9 (2.89)
Q27P S28W A40T | ND / ND / ND | ND | 1 of 9 (1.52)
K36F A57E Y97P | 4.94 / ND / ND | 4.94 | 1 of 9 (3.83)
R34A W56S Q95G | 1.24 / 1.16 / 1.21 | 1.20 | 8 of 9 (4.33)
S26T V29S R34L | 0.85 / 0.85 / 0.82 | 0.84 | 1 of 9 (5.44)
S25F R34W Y97L | 1.12 / 1.50 / 1.60 | 1.40 | 1 of 9 (3.64)
L30S K36N V39R | ND / ND / ND | ND | 4 of 9 (3.87)
S38E T59G Y97D | 4.72 / ND / ND | 4.72 | 1 of 9 (4.67)
R34F L102S | 0.86 / 1.03 / 0.97 | 0.95 | 4 of 9 (3.64)
H98Q L100N L102P | 1.35 / 1.48 / 1.56 | 1.46 | 3 of 9 (4.79)
Q27C V39T A57I | ND / ND / ND | ND | 1 of 9 (3.05)
S25E A57I | 3.44 / 3.45 / 3.87 | 3.59 | 2 of 9 (4.19)
S25K T59G P101K | ND / ND / ND | ND | 1 of 9 (2.08)
S28V S58K Q96Y | ND / ND / ND | ND | 0 of 9
E32V Y97R | ND / ND / ND | ND | 0 of 9
A40E W56I A57H | ND / ND / ND | ND | 0 of 9

The first 4 entries again:

changes,"replicates, log10 nM","log10 Kd (nM), mean",empty controls
S25K S33K R34I,0.71 / 0.74 / 0.58,0.67,1 of 9 (3.79)
K36I S62G Q96H,2.07 / 2.14 / 2.02,2.08,1 of 9 (6.01)
S33Y N37R V39P,ND / ND / ND,ND,1 of 9 (3.52)
V29L E32S R99S,0.50 / 0.67 / 0.65,0.60,1 of 9 (3.61)